# Laboratory results as given in patent US20240415832A1 (priority 2021, published 2024).
# The chains behind the UniProt entries cited, without tags or fusion partners.
# UniProt P14416, whole entry, looked up: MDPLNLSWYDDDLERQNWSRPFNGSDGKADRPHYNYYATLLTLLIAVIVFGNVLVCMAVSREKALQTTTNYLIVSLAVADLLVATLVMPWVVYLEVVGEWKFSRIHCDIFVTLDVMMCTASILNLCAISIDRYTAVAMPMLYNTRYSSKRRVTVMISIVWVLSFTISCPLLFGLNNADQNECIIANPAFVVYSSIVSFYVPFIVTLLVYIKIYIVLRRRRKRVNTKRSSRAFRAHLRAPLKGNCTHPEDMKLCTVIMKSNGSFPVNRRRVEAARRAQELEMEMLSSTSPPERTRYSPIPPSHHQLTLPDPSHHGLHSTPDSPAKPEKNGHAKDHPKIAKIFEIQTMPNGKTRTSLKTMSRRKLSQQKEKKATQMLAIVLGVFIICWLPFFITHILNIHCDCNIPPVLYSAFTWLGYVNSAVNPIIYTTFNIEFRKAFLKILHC
# UniProt P28223, whole entry, looked up: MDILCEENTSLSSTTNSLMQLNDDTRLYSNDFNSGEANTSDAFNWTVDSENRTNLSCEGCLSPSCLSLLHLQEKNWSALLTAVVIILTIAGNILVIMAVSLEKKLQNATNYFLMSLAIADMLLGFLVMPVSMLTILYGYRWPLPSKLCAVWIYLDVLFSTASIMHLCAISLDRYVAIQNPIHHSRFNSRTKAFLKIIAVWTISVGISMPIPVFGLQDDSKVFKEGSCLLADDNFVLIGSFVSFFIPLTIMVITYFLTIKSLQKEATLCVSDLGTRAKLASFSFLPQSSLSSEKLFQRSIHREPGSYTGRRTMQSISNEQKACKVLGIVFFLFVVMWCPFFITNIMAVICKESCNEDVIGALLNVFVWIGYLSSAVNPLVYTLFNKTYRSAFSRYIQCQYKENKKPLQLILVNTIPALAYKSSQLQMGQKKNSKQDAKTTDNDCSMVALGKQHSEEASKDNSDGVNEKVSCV
# UniProt P21728, whole entry, looked up: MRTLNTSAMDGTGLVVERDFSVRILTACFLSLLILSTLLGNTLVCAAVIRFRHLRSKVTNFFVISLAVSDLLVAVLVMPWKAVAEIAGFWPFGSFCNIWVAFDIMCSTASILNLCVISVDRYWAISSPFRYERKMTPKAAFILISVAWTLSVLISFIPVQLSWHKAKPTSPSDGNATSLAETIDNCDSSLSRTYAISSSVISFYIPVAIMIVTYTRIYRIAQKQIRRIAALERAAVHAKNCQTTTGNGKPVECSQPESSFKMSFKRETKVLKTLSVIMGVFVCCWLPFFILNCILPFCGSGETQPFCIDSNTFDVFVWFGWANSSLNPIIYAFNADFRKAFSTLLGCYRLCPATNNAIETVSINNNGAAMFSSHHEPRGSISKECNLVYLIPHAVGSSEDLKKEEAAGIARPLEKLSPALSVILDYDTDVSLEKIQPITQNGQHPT
# Key:
# D2 = D2 (Homo sapiens, UniProt P14416); test: Receptor binding, D2; conditions: D2, @ 100 nM
# 5-HT2A = 5-HT2A (Homo sapiens, UniProt P28223); test: Receptor binding, 5-HT2A; conditions: @ 10 nM
# D1 = D1 (Homo sapiens, UniProt P21728); test: Receptor binding, D1; conditions: D1, @ 50 nM
# Crl:CD rats = test: Reversal of fentanyl-induced respiratory depression in rats (head-out plethysmograph)
# [1] = Group (3): 0.15 mg/kg fentanyl s.c., then 1.0 mg/kg Ex. 1 i.v.
# [2] = Group (4): 0.15 mg/kg fentanyl s.c., then 3.0 mg/kg Ex. 1 i.v.
# [3] = Group (5): 0.15 mg/kg fentanyl s.c., then 5.0 mg/kg Ex. 1 i.v.
# [4] = Group (6): vehicle pre-treatment, then 5.0 mg/kg Ex. 1 i.v. (no fentanyl)
smiles,measurement,setting,value
O=C1CN2c3c(cccc3[C@@H]3CN(CCCOc4ccc(F)c(O)c4)CC[C@@H]32)N1,maximum inhibition,D2,0% @
N#Cc1ccc(OCCCN2CC[C@H]3[C@@H](C2)c2cccc4c2N3CC(=O)N4)cc1,maximum inhibition,5-HT2A,0% @
same,maximum inhibition,D1,0% @
O=C1CN2c3c(cccc3[C@@H]3CN(CCCOc4cccc5cccnc45)CC[C@@H]32)N1,maximum inhibition,5-HT2A,0% @
same,maximum inhibition,D1,0% @
"O=C1CN2c3c(cccc3[C@@H]3CN(CCCOc4ccc(F)cc4)CC[C@@H]32)N1 [Example 1, (6bR,10aS)-8-(3-(4-fluorophenoxy)propyl)-6b,7,8,9,10,10a-hexahydro-1H-pyrido[3′,4′:4,5]pyrrolo[1,2,3-de]quinoxalin-2(3H)-one]",Mean MV,Crl:CD rats; [1],112 mL
same,Mean TV,Crl:CD rats; [1],1.12 mL
same,Mean MV,Crl:CD rats; [2],161 mL
same,Mean TV,Crl:CD rats; [2],1.27 mL
same,Mean MV,Crl:CD rats; [3],163 mL
same,Mean TV,Crl:CD rats; [3],1.48 mL
same,Mean MV,Crl:CD rats; [4],210 mL
same,Mean TV,Crl:CD rats; [4],1.73 mL
O=C1CN2c3c(cccc3[C@@H]3CN(CCCOc4ccc(Cl)cc4)CC[C@@H]32)N1,maximum inhibition,D1,0% @
